Key:
[1] = biological target: AP2-associated protein kinase 1 (Homo sapiens, UniProt Q2M2I8)
[2] = biological target: Tyrosine-protein kinase CSK (Homo sapiens, UniProt P41240)
[3] = biological target: Dual specificity protein kinase CLK1 (Homo sapiens, UniProt P49759)
[4] = biological target: Serine/threonine-protein kinase 25 (Homo sapiens, UniProt O00506)
[5] = biological target: Phosphorylase b kinase gamma catalytic chain, skeletal muscle/heart isoform (Homo sapiens, UniProt Q16816)
[6] = biological target: Cyclin-dependent kinase 9 (Homo sapiens, UniProt P50750)
Ephrin type-A receptor 8 = biological target: T1, Ephrin type-A receptor 8 (Homo sapiens, UniProt P29322)
T1 sequence (P29322 whole entry): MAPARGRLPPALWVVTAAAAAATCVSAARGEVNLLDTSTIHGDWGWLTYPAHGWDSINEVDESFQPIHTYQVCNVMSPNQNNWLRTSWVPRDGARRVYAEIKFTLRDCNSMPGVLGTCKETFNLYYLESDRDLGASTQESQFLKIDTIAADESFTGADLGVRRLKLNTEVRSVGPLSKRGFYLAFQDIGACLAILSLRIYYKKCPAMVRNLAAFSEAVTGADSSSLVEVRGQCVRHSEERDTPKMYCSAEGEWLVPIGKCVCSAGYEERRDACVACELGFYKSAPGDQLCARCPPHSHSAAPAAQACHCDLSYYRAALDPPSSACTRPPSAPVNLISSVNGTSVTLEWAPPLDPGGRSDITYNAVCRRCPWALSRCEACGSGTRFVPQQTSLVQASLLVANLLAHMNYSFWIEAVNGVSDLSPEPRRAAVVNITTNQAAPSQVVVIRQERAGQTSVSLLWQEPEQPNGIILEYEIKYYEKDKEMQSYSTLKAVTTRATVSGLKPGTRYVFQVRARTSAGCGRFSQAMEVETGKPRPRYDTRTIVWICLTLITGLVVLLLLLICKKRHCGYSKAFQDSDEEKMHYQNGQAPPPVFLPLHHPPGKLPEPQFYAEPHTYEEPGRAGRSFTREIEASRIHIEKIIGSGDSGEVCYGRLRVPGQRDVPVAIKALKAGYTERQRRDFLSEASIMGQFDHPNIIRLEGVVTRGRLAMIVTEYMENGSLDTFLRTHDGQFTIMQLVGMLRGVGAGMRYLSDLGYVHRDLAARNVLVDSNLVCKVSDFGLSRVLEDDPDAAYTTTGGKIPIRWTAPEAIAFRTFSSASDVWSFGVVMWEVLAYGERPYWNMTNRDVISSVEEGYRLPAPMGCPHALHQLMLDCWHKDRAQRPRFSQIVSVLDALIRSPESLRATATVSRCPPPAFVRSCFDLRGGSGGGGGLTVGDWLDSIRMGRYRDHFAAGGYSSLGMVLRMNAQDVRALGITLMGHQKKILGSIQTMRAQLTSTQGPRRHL

Protein sequences, listed by entry. Tags and fused reporters are not part of them. Lines headed by an entry give the natural chain unless they say otherwise; changes in a name come on top.
UniProt Q2M2I8: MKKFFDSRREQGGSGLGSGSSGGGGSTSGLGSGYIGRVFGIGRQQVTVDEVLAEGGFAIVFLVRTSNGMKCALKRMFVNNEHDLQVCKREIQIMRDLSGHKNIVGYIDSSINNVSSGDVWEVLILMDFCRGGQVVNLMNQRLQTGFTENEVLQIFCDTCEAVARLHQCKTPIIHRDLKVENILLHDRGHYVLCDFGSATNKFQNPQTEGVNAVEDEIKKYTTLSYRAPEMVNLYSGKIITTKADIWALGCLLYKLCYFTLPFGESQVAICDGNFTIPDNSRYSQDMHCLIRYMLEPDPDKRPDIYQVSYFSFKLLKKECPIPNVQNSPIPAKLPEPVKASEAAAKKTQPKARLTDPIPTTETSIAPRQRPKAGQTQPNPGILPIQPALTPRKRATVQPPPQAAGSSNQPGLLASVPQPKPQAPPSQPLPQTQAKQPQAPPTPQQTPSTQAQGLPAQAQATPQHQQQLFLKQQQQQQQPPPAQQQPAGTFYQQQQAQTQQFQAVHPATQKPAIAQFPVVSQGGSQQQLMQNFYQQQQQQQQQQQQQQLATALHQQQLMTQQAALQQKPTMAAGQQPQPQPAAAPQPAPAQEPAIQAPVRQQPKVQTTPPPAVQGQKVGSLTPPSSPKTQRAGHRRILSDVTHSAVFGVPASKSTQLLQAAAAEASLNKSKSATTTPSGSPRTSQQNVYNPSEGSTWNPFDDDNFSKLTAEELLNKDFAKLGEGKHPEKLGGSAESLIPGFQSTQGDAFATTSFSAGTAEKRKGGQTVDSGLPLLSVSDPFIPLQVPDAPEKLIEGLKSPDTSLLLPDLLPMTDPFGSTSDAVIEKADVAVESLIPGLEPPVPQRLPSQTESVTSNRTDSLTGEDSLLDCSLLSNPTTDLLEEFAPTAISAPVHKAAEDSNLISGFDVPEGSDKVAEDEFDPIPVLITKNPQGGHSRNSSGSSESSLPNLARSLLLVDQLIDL
UniProt P41240: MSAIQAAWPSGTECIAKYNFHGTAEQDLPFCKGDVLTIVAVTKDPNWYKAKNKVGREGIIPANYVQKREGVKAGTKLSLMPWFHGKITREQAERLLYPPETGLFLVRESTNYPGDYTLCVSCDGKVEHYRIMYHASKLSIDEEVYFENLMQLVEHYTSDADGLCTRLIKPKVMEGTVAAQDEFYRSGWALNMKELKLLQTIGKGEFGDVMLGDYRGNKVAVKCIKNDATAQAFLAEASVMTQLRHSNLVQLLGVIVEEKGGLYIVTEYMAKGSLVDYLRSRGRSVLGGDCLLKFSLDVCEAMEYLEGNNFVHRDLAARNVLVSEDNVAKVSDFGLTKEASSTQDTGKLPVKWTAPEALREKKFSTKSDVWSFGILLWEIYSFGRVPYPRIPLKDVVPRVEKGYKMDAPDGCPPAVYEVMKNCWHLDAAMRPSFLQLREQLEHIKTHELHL
UniProt P49759: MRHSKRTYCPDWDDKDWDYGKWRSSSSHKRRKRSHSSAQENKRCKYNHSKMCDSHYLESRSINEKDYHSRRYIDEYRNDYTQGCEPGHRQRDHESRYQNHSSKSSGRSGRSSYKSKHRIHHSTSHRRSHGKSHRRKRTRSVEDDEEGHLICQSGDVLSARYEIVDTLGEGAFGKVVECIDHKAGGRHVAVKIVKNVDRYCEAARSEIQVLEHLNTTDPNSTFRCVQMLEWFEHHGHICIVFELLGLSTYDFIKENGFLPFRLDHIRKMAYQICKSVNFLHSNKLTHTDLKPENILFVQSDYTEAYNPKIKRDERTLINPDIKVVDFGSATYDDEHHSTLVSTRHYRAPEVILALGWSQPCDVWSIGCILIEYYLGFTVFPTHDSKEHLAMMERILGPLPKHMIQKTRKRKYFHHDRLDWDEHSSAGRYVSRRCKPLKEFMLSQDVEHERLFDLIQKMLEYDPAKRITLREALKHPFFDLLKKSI
UniProt O00506, whole entry: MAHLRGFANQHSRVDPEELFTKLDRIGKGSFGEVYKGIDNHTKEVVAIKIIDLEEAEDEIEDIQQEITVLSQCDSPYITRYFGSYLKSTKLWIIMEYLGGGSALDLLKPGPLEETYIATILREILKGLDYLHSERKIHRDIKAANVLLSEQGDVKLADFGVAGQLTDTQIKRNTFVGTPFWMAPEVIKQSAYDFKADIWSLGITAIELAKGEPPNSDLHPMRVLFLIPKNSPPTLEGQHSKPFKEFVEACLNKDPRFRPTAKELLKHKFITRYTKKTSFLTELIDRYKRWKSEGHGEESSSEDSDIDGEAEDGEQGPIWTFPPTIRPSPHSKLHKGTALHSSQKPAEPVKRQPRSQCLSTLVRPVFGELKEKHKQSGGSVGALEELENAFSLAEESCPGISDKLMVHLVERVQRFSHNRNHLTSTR
UniProt Q16816: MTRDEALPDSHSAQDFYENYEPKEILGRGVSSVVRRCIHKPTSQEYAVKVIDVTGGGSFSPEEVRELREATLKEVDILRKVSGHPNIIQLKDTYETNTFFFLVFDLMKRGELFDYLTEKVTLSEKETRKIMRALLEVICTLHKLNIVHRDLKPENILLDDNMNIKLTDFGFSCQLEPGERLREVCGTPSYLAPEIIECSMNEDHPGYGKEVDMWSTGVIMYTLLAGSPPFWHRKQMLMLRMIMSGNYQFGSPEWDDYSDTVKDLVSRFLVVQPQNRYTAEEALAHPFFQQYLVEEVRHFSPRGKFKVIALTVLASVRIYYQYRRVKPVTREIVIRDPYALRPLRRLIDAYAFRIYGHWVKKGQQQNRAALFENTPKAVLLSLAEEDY
UniProt P50750, whole entry: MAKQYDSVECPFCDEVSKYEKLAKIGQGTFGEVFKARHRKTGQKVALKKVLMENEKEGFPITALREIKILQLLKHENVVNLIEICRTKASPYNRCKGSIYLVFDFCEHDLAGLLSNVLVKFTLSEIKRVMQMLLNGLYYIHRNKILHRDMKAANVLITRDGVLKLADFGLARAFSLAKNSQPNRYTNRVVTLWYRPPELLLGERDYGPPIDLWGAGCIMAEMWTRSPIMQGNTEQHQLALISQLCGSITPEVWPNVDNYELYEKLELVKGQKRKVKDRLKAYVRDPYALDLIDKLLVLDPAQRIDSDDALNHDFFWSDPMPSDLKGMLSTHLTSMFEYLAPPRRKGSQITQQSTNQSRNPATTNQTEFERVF
UniProt Q13153, whole entry: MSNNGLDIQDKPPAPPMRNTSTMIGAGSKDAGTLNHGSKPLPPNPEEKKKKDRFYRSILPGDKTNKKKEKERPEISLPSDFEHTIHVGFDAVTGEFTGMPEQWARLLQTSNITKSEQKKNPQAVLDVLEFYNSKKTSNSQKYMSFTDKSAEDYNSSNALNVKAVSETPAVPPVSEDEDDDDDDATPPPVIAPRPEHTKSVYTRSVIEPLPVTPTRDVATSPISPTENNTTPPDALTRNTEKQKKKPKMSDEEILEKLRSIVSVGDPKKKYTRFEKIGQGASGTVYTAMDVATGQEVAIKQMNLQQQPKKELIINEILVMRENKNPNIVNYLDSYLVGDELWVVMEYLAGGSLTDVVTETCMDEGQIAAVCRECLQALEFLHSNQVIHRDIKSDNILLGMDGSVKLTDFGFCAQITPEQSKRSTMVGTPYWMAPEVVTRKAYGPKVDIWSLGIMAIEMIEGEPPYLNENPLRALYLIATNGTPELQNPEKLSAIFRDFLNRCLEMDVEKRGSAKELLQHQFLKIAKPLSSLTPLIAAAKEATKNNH
UniProt Q16539, whole entry: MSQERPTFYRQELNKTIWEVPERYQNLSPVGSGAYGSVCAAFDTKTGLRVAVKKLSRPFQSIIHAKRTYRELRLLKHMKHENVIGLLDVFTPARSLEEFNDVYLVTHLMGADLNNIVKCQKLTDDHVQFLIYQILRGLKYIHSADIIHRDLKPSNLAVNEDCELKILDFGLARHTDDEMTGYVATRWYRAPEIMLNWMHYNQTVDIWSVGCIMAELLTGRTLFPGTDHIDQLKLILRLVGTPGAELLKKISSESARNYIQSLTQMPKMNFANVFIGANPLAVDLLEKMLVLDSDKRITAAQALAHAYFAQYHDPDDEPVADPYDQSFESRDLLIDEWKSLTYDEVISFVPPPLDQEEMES

[7] = biological target: Serine/threonine-protein kinase PAK 1 (Homo sapiens, UniProt Q13153)
[8] = biological target: Mitogen-activated protein kinase 14 (Homo sapiens, UniProt Q16539)

Row | Compound | Kd [1] | Kd [2] | Kd [3] | Kd [4] | Kd [5] | Kd [6] | Kd (Ephrin type-A receptor 8) | Kd [7] | Kd [8]
1 | CCOc1cc2ncc(C#N)c(Nc3ccc(F)c(Cl)c3)c2cc1NC(=O)/C=C/CN(C)C [PELITINIB] | 3.5 µM | 3.4 µM | 3.3 µM | 3.4 µM | 3.5 µM | > 10 µM | 3.3 µM | 3.4 µM | 
2 | COCC(=O)NC/C=C/c1ccc2ncnc(Nc3ccc(Oc4ccc(C)nc4)c(C)c3)c2c1 [CP-724714] |  |  |  |  |  | > 10 µM |  |  | 
3 | NC(=O)c1ccc(-c2nc(-c3ccc4c(c3)OCO4)c(-c3ccccn3)[nH]2)cc1 [SB-431542] |  |  |  |  |  |  |  |  | > 10 µM

Reference: ChEMBL document CHEMBL1150977, “A quantitative analysis of kinase inhibitor selectivity” (Nat Biotechnol, 2008)
